Reference: patent US5932244A, “Liposomal human calcitonin gene-related peptide composition and preparation of the same” (priority 1996, dated 1999)
Where “and” joins values, the source holds several entries; their conditions need not be identical. Equal entries are not always repeated.

How the values were obtained:
ocular vessels = assay: vasodilatory activity: diameters of ocular vessels of anesthetized rabbits after dropping sample into the eye; format: in vivo, New Zealand white rabbits; settings: for vasodilation (diameter %): individual experiments 1-5; for vasodilation (diameter %), mean: n=5
[1] = in vivo; cited from earlier work
[2] = storage time in aqueous solution; format: physicochemical
[3] = Sephadex G-50 fine gel filtration of free and liposome-bound hCGRP; format: physicochemical
Procedure: Methods: Liposomal hCGRP and free hCGRP were analyzied by the method of Berk [Berk D. and Marcinka K., Gel Chromatography in Separation Methods. Deylz ed. 1984, 271]. hCGRP samples reconstituted with or without soybean phospholipid (1.0 ml in 0.1M Tris-HCl, pH8.8) were applied to a 1.5×46 cm sephdex G-50 fine column in 0.1M Tris-HCl, pH8.8. Blue dextran 2000 (Pharmacia) and ^32 PO4 (England) were mixed with separated sample as mark of Vo and Vi respectively.
Methods: During storage period of the reconstituted liposome after being sterilized at 100° C. for 30 min, free hCGRP, dissociated from the liposome, was determined by gel filtration at the interval of 3 months. The absorption at UV 206 nm of hCGRP has been correlated with 0.52 of the distribution coefficient (Kd) in correction of hCGRP standard. At this Kd value, we can investigate whether hCGRP is dissociated from the reconstituted liposome during storage period. Sephadex G-50 fine gel filtration was carried out, every datum is mean±SD of 3 indepentent operations.

congestive heart failure = settings: cited from earlier work
[4] = incubated in human plasma, 37° C., hour 0
[5] = incubated in human plasma, 37° C., hour 12
[6] = incubated in human plasma, 37° C., hour 24
[7] = incubated in human plasma, 37° C., hour 48

Human α-type calcitonin gene-related peptide [hCGRP]
vasodilation (diameter %) (ocular vessels; [4]): +213% and +191% and +187% and +194% and +188%
vasodilation (diameter %), mean (ocular vessels; [4]): +195%
vasodilation (diameter %), mean (ocular vessels; incubated in human plasma, 37° C., hour 0, listed as free hCGRP): +195±16.49%
vasodilation (diameter %) (ocular vessels; [5]): +102% and +93% and +114% and +90% and +87%
vasodilation (diameter %), mean (ocular vessels; [5]): +97%
vasodilation (diameter %) (ocular vessels; [6]): +52% and +49% and +79% and +82% and +51%
vasodilation (diameter %), mean (ocular vessels; [6]): +63%
vasodilation (diameter %) (ocular vessels; [7]): +29% and +33% and +22% and +19% and +24%
vasodilation (diameter %), mean (ocular vessels; [7]): +25%
vasodilation (diameter %), mean (ocular vessels; incubated in human plasma, 37° C., hour 48, listed as free hCGRP): +25±6.8%
vasodilation (diameter %) (ocular vessels; stored in H2O, 25° C., day 0): +189% and +191% and +181% and +192% and +179%
vasodilation (diameter %), mean (ocular vessels; stored in H2O, 25° C., day 0): +187%
vasodilation (diameter %), mean (ocular vessels; stored in H2O, 25° C., day 0, listed as free hCGRP): +187±8.9%
vasodilation (diameter %) (ocular vessels; stored in H2O, 25° C., day 30): +142% and +133% and +152% and +161% and +165%
vasodilation (diameter %), mean (ocular vessels; stored in H2O, 25° C., day 30): +151%
vasodilation (diameter %) (ocular vessels; stored in H2O, 25° C., day 60): +94% and +99% and +84% and +114%
vasodilation (diameter %), mean (ocular vessels; stored in H2O, 25° C., day 60): +98%
vasodilation (diameter %) (ocular vessels; stored in H2O, 25° C., day 90): +82% and +79% and +63% and +88% and +102%
vasodilation (diameter %), mean (ocular vessels; stored in H2O, 25° C., day 90): +83%
vasodilation (diameter %), mean (ocular vessels; stored in H2O, 25° C., day 90, listed as free hCGRP): +83±12.4%
half-life [1]: 9 to 12 min
orginal storage time in aqueous solution [2]: 15 days
reconstitution efficiency of hCGRP in membrane (% at Kd 0.04) ([3]; gel filtration peak at Kd 0.04): 0%
% of hCGRP at Kd 0.52 (free hCGRP) ([3]; gel filtration peak at Kd 0.52): 100%
systemic artery blood pressure decrease (congestive heart failure; i.v. infusion 8.0 ng/kg/min for 8 h, 30 min after drug, p<0.05): 18%
hemodynamic effect (congestive heart failure; intravenous infusion 8.0 ng/kg/min for 8 h): caused a decrease in the right arterial, pulmanary artery, pulmonary artery wedge and systemic arterial pressure
